Results published in patent US11684644B2, “Composition for promoting absorption of phytochemicals” (MEIJI CO., LTD., priority 2018, dated 2023).

Test: Evaluation for dissolvability of phytochemical (dissolution rate in water)
Settings: concentration of the centrifuged supernatant after shaking in ultrapure water, 21±2° C.; glucosides in terms of the aglycone
Description: In the present invention, the “dissolution rate” is an index indicating dissolvability of a compound into water, and is also represented by the value, in terms of the percentage (%), obtained by dividing a concentration (w/v) of the compound in a supernatant, which is obtained by shaking the compound in pure water to dissolve the compound therein and by centrifuging the solution, by a concentration (w/v) of the compound in pure water before being dissolved therein. The concentration may be measured by using a spectrophotometer. […] The temperature condition in the measurement of the “dissolution rate” is set to 21±2° C.
Furthermore, 10 mL of ultrapure water was added to the glucoside phytochemical such that the amount of aglycone (portion other than carbohydrate obtained by hydrolysis of glucoside) can be equal to 33.3 mg; namely, 67.3 mg of rutin (33.3 mg of quercetin); 89.6 mg of α-glucosyl rutin (33.3 mg of quercetin); 67.3 mg of hesperidin (33.3 mg of hesperetin); or 71.0 mg of naringin (33.3 mg of naringenin). As for the terpenoids, in accordance with the administering amount used in Experiments, 10 mL of ultrapure water was added to 3.3 mg of each of β-carotene and lycopene. The solutions thus prepared were shaken for 3 hours, and then, were centrifuged at 2000×g for 10 minutes. […] The dissolution rate was calculated in accordance with the following formula. […]

Catechin
Saturated solubility: 323 mg/100 g
